Key:
Test in all cases: Six-well plate screening test
Assay type in all cases: cell-based
Aspergillus niger = test system: Aspergillus niger
Aureobasidium pullulans = test system: Aureobasidium pullulans
[1] = test system: Cladosporium cladosporioides
Penicillium funiculosum = test system: Penicillium funiculosum
Trichoderma virens = test system: Trichoderma virens
Stachybotrus charatrum = test system: Stachybotrus charatrum

## iron(III) dimethyldithiocarbamate [Ferbam]
Aspergillus niger
  Minimum Inhibitory Concentrations (MIC): 100 mg/kg
Aureobasidium pullulans
  Minimum Inhibitory Concentrations (MIC): 100 mg/kg
[1]
  Minimum Inhibitory Concentrations (MIC): 100 mg/kg
Penicillium funiculosum
  Minimum Inhibitory Concentrations (MIC): >100 mg/kg
Trichoderma virens
  Minimum Inhibitory Concentrations (MIC): >100 mg/kg
Stachybotrus charatrum
  Minimum Inhibitory Concentrations (MIC): 50 mg/kg
